SMILES strings stand for the structures. The entries are a selection whose mix differs from that of the whole data set. Results filed as inconclusive are left out. The source made the active and inactive calls. Unless noted, calls follow the shape of the dose curve; as a rule, active = well fitted curve in the direction sought with a large enough effect in the repeat runs; inconclusive = weak or mixed curves; inactive = no such curve, though single readings can be large; an effect the other way counts as inactive or inconclusive.

From PubChem BioAssay (Tox21) come the findings set out here.

A short description of test [1]: qHTS assay for small molecules that induce genotoxicity in human embryonic kidney cells expressing luciferase-tagged ATAD5 - cell viability (AID 651634; calls by dose curve; also: nearly all actives have a fitted effect of over 25% in size). An outline of the steps: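 HEK293T cells carrying luciferase-tagged ATAD5, 2,000 cells/well, exposed to compound for 15.5 hr at 37C. Viability read as live-cell protease activity by CellTiter-Fluor fluorescence after 30 min at 37C.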

A short description of test [2]: qHTS assay for small molecule disruptors of the mitochondrial membrane potential - cell viability (AID 720634; calls by dose curve;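 also: human HepG2 liver cancer cells; nearly all actives have a fitted effect of over 20% in size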). The procedure, abridged:
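HepG2 cells, 2,000 per well, attached overnight, then treated 1 hr at 37 C, 5% CO2. Viability read as ATP by CellTiter-Glo luminescence after 30 min at room temperature. Read in the same wells as the m-MPI membrane-potential dye assay.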

The nature of test [3]: qHTS assay to test for compound auto fluorescence at 590 nm (red) in HepG2 cells (AID 720674). The settings on record: HepG2 autofluorescence, red 540/590 nm, 1 h; at 91.3 µM (top of the series) unless noted. The procedure, abridged:
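HepG2 cells, 2,000 per well in MEM with 10% FBS, attached overnight at 37 C, then got 23 nL compound or DMSO. After 1 hr at 37 C, 5% CO2, red fluorescence was read at 540/590 nm against Rose Bengal sodium as reference.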

Test [4] can be described thus: qHTS assay to test for compound auto fluorescence at 535 nm (green) in HepG2 cells (AID 720675). The settings on record: green autofluorescence 485/535 nm, 1 h; at 91.3 µM (top of the series) unless noted.
Test [5] is described as follows: qHTS assay to test for compound auto fluorescence at 460 nm (blue) in HEK293 cells (AID 720678). The settings on record: blue autofluorescence 405/460 nm; at 91.3 µM (top of the series) unless noted. The procedure, abridged: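 Measured: blue fluorescence (Ex 405/Em 460 nm) of compound-treated HEK293 cells, incubated overnight at 37C with 5% CO2 and scaled to triamterene equivalents.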

The nature of test [6]: qHTS assay to test for compound auto fluorescence at 590 nm (red) in HEK293 cells (AID 720679). The following applies: red autofluorescence 540/590 nm; at 91.3 µM (top of the series) unless noted. An outline of the steps: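 Using HEK293 cells at 2,000 per well, the screen added 23 nL of each compound after cell attachment and incubated overnight (37C, 5% CO2). The plate reader then captured red-label fluorescence, Ex/Em 540/590nm.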

Test [7] is described as follows: qHTS assay to test for compound auto fluorescence at 535 nm (green) in HEK293 cells (AID 720680). The following applies: green autofluorescence 485/535 nm; at 91.3 µM (top of the series) unless noted.
Test [8] can be described thus: qHTS assay to test for compound auto fluorescence at 535 nm (green) in HEK293 cell free culture (AID 720682). The following applies: cell-free medium, green autofluorescence 485/535 nm, hits give high values; at 91.3 µM (top of the series) unless noted. An outline of the steps:
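Using fluorescein as calibrant, autofluorescence was quantified at 485/535 nm in cell-free DMEM containing 10% FBS after pintool addition of compound or vehicle.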

Test [9] in a line: qHTS assay to test for compound auto fluorescence at 590 nm (red) in HEK293 cell free culture (AID 720683). The settings on record: cell-free medium autofluorescence, Ex540/Em590 red; at 91.3 µM (top of the series) unless noted. An outline of the steps:
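Cell-free wells of DMEM with 10% FBS received compound, and intrinsic fluorescence was read at excitation/emission 540/590 nm. Values expressed as equivalence to Rose Bengal sodium.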

Test [10] is described as follows: qHTS assay for small molecule disruptors of the mitochondrial membrane potential (AID 720635). Also: potency is read from the fitted curve at half-maximal effect.
% is scaled to controls: 0 for no effect and ±100 for the full control effect.

Consider `CCOP(=S)(CC)Sc1ccccc1` (stereo not drawn), for which the Potency result in test [1] and in test [2] was “inactive” in each case. The fluorescence, relative to Rose Bengal in test [3] is inactive: -0.0577%. Also, the fluorescence, % of fluorescein control in test [4] is inactive: -0.0265%. Further, the fluorescence, % of triamterene in test [5] is inactive: 0.0095%. In addition, the fluorescence, % of fluorescent control in [6] was inactive: 0.108%; in [9], inactive: -0.0948%. In addition, the fluorescence, % of fluorescein in test [7] is inactive: -0.0321%. In addition, the activity change in [8] was inactive: -0.0022%.

In the case of `O=[N+]([O-])c1ccc(S(=O)(=O)O)c([N+](=O)[O-])c1`, the Potency result in test [2] was “inactive”. The fluorescence, relative to Rose Bengal in test [3] was inactive: -0.0356%. Also, the fluorescence, % of fluorescein control in [4] is inactive: -0.0484%. For the same compound, the fluorescence, % of triamterene in [5] is inactive: 0.0557%. For the same compound, the results for the fluorescence, % of fluorescent control in [6] and in test [9] were inactive: 0.267% and inactive: -0.0335%, respectively. Besides, in test [7], the fluorescence, % of fluorescein was inactive: -0.0631%. The activity change in test [8] is inactive: 0.035%.

For `Cc1cc([N+](=O)[O-])c(O)c([N+](=O)[O-])c1`, the Potency result in test [2] is “inactive”. In addition, the Potency in [10] is active: 21.9 µM. Further, in test [3], the fluorescence, relative to Rose Bengal is inactive: -0.247%. Moreover, in [4], the fluorescence, % of fluorescein control is inactive: -0.634%. Besides, the fluorescence, % of triamterene in [5] was inactive: -0.928%. For the same compound, the fluorescence, % of fluorescent control in test [6] was inactive: 0.0659%; in test [9], inactive: -0.415%. The fluorescence, % of fluorescein in [7] is inactive: -0.485%. Moreover, the activity change in test [8] is inactive: -0.494%.

`CC(C)OP(=S)(OC(C)C)SCCNS(=O)(=O)c1ccccc1`: the Potency result in [1] was “inactive”. In test [10], the Potency is active: 12.2 µM. The fluorescence, relative to Rose Bengal in [3] was inactive: 0.047%. For the same compound, the fluorescence, % of fluorescein control in test [4] is inactive: 0.114%. In addition, the fluorescence, % of triamterene in test [5] is inactive: 0.0173%. The fluorescence, % of fluorescent control in test [6] is inactive: -0.119%; in [9], inactive: 0.177%. The fluorescence, % of fluorescein in test [7] is inactive: 0.15%. Moreover, the activity change in test [8] is inactive: 0.0321%.

Regarding `CN(C(=O)Cc1ccccc1)[C@H]1CC[C@@]2(CCCO2)C[C@@H]1N1CCCC1`, the Potency result in test [1] and in test [2] was “inactive” in each case. Moreover, the fluorescence, relative to Rose Bengal in test [3] was inactive: -0.0163% [at 46 µM]. In test [4], the fluorescence, % of fluorescein control is inactive: 0.186% [at 46 µM]. The fluorescence, % of triamterene in test [5] was inactive: 0.457% [at 46 µM]. The fluorescence, % of fluorescent control is inactive: 0.0754% [at 46 µM] in [6] and inactive: -0.0315% [at 46 µM] in test [9]. For the same compound, the fluorescence, % of fluorescein in test [7] was inactive: 0.224% [at 46 µM]. For the same compound, the activity change in [8] is inactive: 0.0245% [at 46 µM].

As to `O=C(OC1CN2CCC1CC2)c1ccccc1` (stereo not drawn), the Potency entry in [1], in test [2] and in [10] was “inactive” throughout. For the same compound, the fluorescence, relative to Rose Bengal in [3] is inactive: -0.264% [at 46 µM]. Moreover, the fluorescence, % of fluorescein control in test [4] was inactive: -0.017% [at 46 µM]. In addition, in test [5], the fluorescence, % of triamterene is inactive: -0.0293% [at 46 µM]. Also, the fluorescence, % of fluorescent control in test [6] was inactive: 0.135% [at 46 µM]; in test [9], inactive: -0.554% [at 46 µM]. Moreover, the fluorescence, % of fluorescein in [7] is inactive: 0.0549% [at 46 µM]. The activity change in [8] is inactive: 0.0402% [at 46 µM].

For the compound `ClP(Cl)c1ccccc1`, the Potency result in test [1] and in [2] was “inactive” in each case. Besides, the fluorescence, relative to Rose Bengal in [3] was inactive: -0.134%. The fluorescence, % of fluorescein control in test [4] was inactive: 0.0108%. Also, the fluorescence, % of triamterene in test [5] is inactive: -0.207%. For the same compound, the values for the fluorescence, % of fluorescent control in test [6] and in test [9] were inactive: -0.327% and inactive: -0.0847%, respectively. For the same compound, the fluorescence, % of fluorescein in test [7] was inactive: 0.0754%. Moreover, the activity change in test [8] is inactive: -0.051%.
